Consider 1 compound from BindingDB's records for 1335078.

Amino acid sequences for entries named in this document (tags omitted).
UniProt P41143, whole entry: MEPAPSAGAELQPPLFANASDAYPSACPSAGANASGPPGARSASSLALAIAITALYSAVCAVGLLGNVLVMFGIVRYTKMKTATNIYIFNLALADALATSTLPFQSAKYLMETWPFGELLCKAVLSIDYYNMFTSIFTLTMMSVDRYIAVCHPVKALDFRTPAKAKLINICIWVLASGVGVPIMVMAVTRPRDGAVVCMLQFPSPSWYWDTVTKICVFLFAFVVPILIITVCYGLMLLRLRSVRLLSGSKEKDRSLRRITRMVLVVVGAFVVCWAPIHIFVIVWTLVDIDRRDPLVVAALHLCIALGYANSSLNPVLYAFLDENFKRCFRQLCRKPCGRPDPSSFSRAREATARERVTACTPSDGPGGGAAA

The target of this experiment is Delta-type opioid receptor (Homo sapiens, UniProt P41143). The experiment can be described thus: ChEBML_146877.

By IC50 is commonly meant the midpoint of a concentration-inhibition curve. Compound `C=C(COc1ccc2c3c1O[C@H]1[C@@]4(OC)CC[C@@]5(C[C@@H]4C(C)(C)O)[C@@H](C2)N(CC2CC2)CC[C@]315)C(=O)OC` returned an IC50 of 1.3 nM.
